A short description of the series: Serum vorinostat pharmacokinetics. In kind it is in vivo, human. To be noted: Mean, N 20, first 200 mg oral dose day 1.

Consider `O=C(CCCCCCC(=O)Nc1ccccc1)NO` [vorinostat, suberoylanilide hydroxamic acid], for which the Vd/F was 1,003 L/h.

These data come from article PMC4332848 (Clinical cancer research : an official journal of the …, 2013).
